These results are taken from article PMC9160101 (Pharmaceutical Research, 2022).

This data set concerns HµRel hepatocytes. As to the kind of experiment: In vitro metabolism in HµRel human hepatic co-cultures. As to conditions: quinidine 1 µM, ulotaront 2 µM. The text has this:
HμRel® human hepatic co-cultures were purchased from HμRel® Corporation (North Brunswick, New Jersey).

For `C=C[C@H]1C[N@@]2CC[C@H]1C[C@@H]2[C@@H](O)c1ccnc2ccc(OC)cc12` [quinidine], the “effect of pre-treatment on ulotaront metabolism” value is “slightly reduced metabolism”.
